Key:
[1] = tested on: HPBMC cells; test: HPBMC experiment: CD69 on anti-human IgM stimulated B cells, flow cytometry; conditions: read-out: CD69 IC50, B cells isolated from PBMC, 48 hours
Description: • 1) Medium: RPMI Medium 1640+1% P/S+10% FBS • 2) MACS buffer: 2% FBS+1 mM EDTA in DPBS • 3) Staining buffer: DPBS+2% FBS • 1.2 Dilution of Compounds and Anti-Human IgM
The initial concentration of the compound to be tested was […], 3-fold dilution, 9 points, and it was added to a 96 well plate after dilution, 50 μL/ well.
The anti-human IgM was diluted according to Table 2 below, and added to the 96 well plate after dilution, 50 μL/well.
• 1) PBMC was removed from a liquid nitrogen tank, then resuscitated and thawed in a 37° C. water bath; • 2) Using a B cell olation kit, B cells were isolated from PBMC according to the instructions, and their viability and number were calculated using a cell counter.
Table 10 Number and viability of PBMC and B cells • 3) The cells were resuspended with 1640 culture medium to a final concentration of 1 M/mL. • 4) The B cells were spread at 0.1 M/ well (100 μL) into a 96-well flat-bottom plate already containing the compound and anti-IgM. • 5) The plate was incubated in a 37° C. CO2 incubator for 48 hours; […]

[2] = tested on: plasma proteins; test: Plasma protein binding experiment (PPB), C; conditions: 2 μM, 4 hours dialysis
Description: (§1) Experimental operation: 995 μL of blank plasma of each genus was taken, 5 μL of working solution of test compound (400 μM) or working solution of warfarin (400 μM) was added, so that the final concentrations of the test compound and warfarin in the plasma sample was 2 μM. The sample was mixed thoroughly. The final concentration of the organic phase DMSO was 0.5%; 50 μL of plasma samples of the test compound and warfarin were pipetted into the sample receiving plate (three parallels), and the corresponding volume of the corresponding blank plasma or buffer was immediately added so that the final volume of each sample well was 100 μL, with a volume ratio of 1:1 for plasma: dialysis buffer, and then 500 μL of stop solution was added to these samples, and these samples would be used as a T0 sample for the recovery and stability determination. […] All samples were analyzed by LC/MS/MS after protein precipitation, and the protein binding rate and recovery rate were calculated by the formula: % Unbound=100*F/T, % Bound=100−% Unbound, % Recovery 100*(F+T) T0 (where F was the peak area ratio of the compound in the dialysate after 4 hours of dialysis; T was the peak area ratio of the compound in the plasma after 4 hours of dialysis, and T0 was the peak area ratio of the compound in the plasma sample at zero time).

[3] = tested on: plasma proteins; test: Plasma protein binding experiment (PPB), R; conditions: 2 μM, 4 hours dialysis
Description: as §1

[4] = tested on: plasma proteins; test: Plasma protein binding experiment (PPB), M; conditions: 2 μM, 4 hours dialysis
Description: as §1

[5] = Hepatocyte metabolic stability experiment (HMS), M; conditions: M hepatocytes, 1 μM
Description: Experimental operations: 198 μL of hepatocyte suspension (0.51×10^6 cells/mL) was added to the preheated incubation plate, and 198 μL of culture medium without hepatocytes was added to T0-MC and T120-MC incubation plates for the culture medium control group, and all incubation plates were pre-incubated for 10 minutes in a 37° C. incubator. Then 2 μL of the working solution of the test and control compounds were added and mixed well, and the incubation plate was immediately put into the plate shaker in the incubator, the rotation speed was adjusted to about 650 rpm, and the timer and the reaction were started. 2 duplicate samples for each compound were prepared at each time point. Incubation conditions: 37° C., saturated humidity, and containing 5% CO2. In the test system, the final concentration of the test compound was 1 μM, the final concentration of the control compound was 3 μM, the final concentration of hepatocytes was 0.5×10^6 cells/mL, and the final concentration of the total organic solvent was 0.96%, of which the final concentration of DMSO was 0.1%. […] All samples were mixed and analyzed by LC-MS/MS method. […]

## Nc1nccc2c1n(-c1ccc(Oc3ccccc3)cc1)c(=O)n2C1CCN(C(=O)/C=C/CF)C1 (single isomer, unassigned) [Compound 003B]
[1]
  IC50: 2 nM
[2]
  Unbound PPB: 9.5%
[3]
  Unbound PPB: 5.7%
[4]
  Unbound PPB: 1.8%
[5]
  HMS CLint(liver): 2766 mL/min/kg

— patent publication US20240217973A1, “IMIDAZOPYRIDINE COMPOUNDS AND USE THEREOF” (MEDSHINE DISCOVERY INC., priority 2021, published 2024)
